Assay results taken from US20090105197A1, “Use of Sodium Channel Blocking Compounds and Aspirin in Manufacturing Drugs for Producing Analgesia Synergistically in Mammals” (priority 2001, published 2009).

Test system: acetic acid-induced writhing in mice
Type: in vivo, Kunming mice
Conditions: aspirin alone, i.m., probit method
From the text: Kunming mice, 18-22 grams, half male and half female, supplied by the Experimental Animal Center of Beijing University, Medical Branch. Quality Certificate No. 013056. Classification: One.
Tetrodotoxin (TTX), 95% purity, supplied by Nanning Maple Leaf Pharmaceutical Co., LTD., batch no. 0324C. Diluted with citric acid buffer solution to required concentration. Aspirin (ASP), powder, 99% purity, manufactured by Shandong Xinhua Pharmaceutical Factory, batch no. 0005564. Ground and then diluted with 0.5% sodium carboxymethyl cellulose (CMC) solution. Glacial acetic acid, analytical pure, manufactured by Beijing 52952 Chemical Factory, batch no. 991117.
Acetic acid-induced writhing test in mice (Shuyun X U, Rulian BIAN, Xiu CHEN, Methodology of Pharmacology Experiments). […] Solely TTX or ASP was given to mice intramuscularly. For combined groups, drugs were given to both sides of a mouse intramuscularly at a volume of 0.1 mL/10 g, respectively. After 40 minutes, 0.6% glacial acetic acid solution was given intraperitoneally to induce pain. In the following 15 minutes, writhing movements were observed and recorded. […] The writhing inhibition rate was calculated according to the following formula: […]
The half inhibition rate (IDso) was determined by the probit method. […]

CC(=O)Oc1ccccc1C(=O)O [ASP, Aspirin] was tested, and the “ID50 (half inhibition dose) of aspirin” value was 44.1 mg/kg and the “ID50 (half inhibition dose) of aspirin” value (listed as aspirin) was 44.1 mg/kg and 44.11 mg/kg.

Where “and” joins values, the source holds several entries; their conditions need not be identical. Equal entries are not always repeated. Where two headings read alike, the source gives them in different places.
